Assay results reported in patent US9447108B2 (SZEGEDI TUDOMÁNYEGYETEM, priority 2013, dated 2016).

Chains of the proteins cited; added tags and fusions are not shown.
UniProt P33535, whole entry: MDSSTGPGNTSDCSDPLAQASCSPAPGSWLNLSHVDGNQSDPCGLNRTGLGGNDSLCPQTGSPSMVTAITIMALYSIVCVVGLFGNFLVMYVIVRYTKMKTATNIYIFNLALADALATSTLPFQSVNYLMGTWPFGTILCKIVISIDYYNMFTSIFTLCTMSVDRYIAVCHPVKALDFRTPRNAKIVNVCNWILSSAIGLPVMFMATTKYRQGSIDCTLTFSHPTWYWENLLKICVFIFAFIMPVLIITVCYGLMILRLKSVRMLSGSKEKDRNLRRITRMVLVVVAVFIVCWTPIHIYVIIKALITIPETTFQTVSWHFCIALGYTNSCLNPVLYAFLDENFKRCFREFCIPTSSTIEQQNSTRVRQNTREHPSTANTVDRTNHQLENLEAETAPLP

Target: T1, μ-opioid receptors (Rattus norvegicus, UniProt P33535)
T1 construct: A crude membrane fraction was prepared from Wistar rat brains and spinal cords; from tissue; host or cells: Wistar rat brain (without cerebellum), crude membrane fraction
Assay: Receptor binding assay, [3H]DAMGO displacement in rat brain membranes
Details: in words

[2H][C@@H]1[C@H]([2H])[C@H]2[C@H]3Cc4ccc(O)c5c4[C@@]2(CCN3C)[C@@H](O5)[C@H]1O [Example 1, (5α,6α,7β,8β)-3,6-dihydroxy-4,5-epoxy-17-methyl-(7,8-^2H2)-morphinan]
affinity to μ-opioid receptors compared to morphine: higher affinity to μ-opioid receptors than the morphine
affinity to μ-opioid receptors compared to the corresponding hydrogenated derivative: higher affinity to μ-opioid receptors than the corresponding hydrogenated derivatives
μ-opioid activity compared to DAMGO: more active than the prototypic opioid ligand DAMGO
